{"source": "patent US8426385B2", "about": "(Hainan Hdeton Science and Technology Co. Ltd., priority 2006, dated 2013)", "origin": "cited, not measured here", "conditions": "phase solubility studies; cited from earlier work"}
{"substance": "hydroxypropyl-γ-cyclodextrin", "values": [{"measurement": "dual-inclusion constant with paclitaxel", "result": 1886, "unit": "M⁻¹"}]}
